Laboratory results reported in patent publication US20260022143A1, “Cyclic Peptide Inhibitors of IL-23” (JANSSEN PHARMACEUTICA NV, priority 2022, published 2026).

Target: T1, IL-23R (Homo sapiens, UniProt Q5VWK5)
T1 construct: host or cells: HEK293
T1 sequence (Q5VWK5 24-629): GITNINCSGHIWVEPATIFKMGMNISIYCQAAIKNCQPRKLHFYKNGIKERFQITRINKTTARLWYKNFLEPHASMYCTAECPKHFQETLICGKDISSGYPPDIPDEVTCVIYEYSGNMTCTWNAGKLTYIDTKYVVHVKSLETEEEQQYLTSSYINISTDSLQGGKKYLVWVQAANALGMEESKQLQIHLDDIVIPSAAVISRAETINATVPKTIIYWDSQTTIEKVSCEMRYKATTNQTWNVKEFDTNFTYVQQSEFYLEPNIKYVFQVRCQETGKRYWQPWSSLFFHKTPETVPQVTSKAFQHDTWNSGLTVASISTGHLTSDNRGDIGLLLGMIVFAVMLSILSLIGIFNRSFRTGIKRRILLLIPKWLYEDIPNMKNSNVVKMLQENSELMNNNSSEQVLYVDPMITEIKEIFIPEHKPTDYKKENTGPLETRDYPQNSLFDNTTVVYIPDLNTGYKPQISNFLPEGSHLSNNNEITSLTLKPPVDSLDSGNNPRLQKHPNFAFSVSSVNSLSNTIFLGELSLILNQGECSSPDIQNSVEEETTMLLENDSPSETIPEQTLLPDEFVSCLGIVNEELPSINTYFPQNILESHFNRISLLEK
Assay: IL23R Reporter Assay
Assay type: cell-based
Details: HEK293 cells containing IL-23R, IL-12RP1 and STAT-inducible firefly luciferase reporter; 10 ng/mL IL-23 (EC90); 5 h at 37° C.; read-out: IL23R Reporter Assay

Row | Structure (SMILES) | IC50
1 | CC(=O)NCCCC[C@@H]1NC(=O)[C@H](Cc2c[nH]c3c(C)cccc23)NC(=O)[C@H]([C@@H](C)O)NC(=O)[C@H](CC(N)=O)NC(=O)[C@@H](NC(=O)[C@@H](CCCNC(=N)N)NC(=O)CCOCCOCCOCCOCCOCCOCCNC(C)=O)C(C)(C)SSC(C)(C)[C@@H](C(=O)N[C@@H](Cc2ccc(OCCN)cc2)C(=O)N[C@@H](Cc2ccc3ccccc3c2)C(=O)NC2(C(=O)N[C@@H](CCC(=O)O)C(=O)N[C@@H](CC(N)=O)C(=O)N[C@@H](Cc3cccnc3)C(=O)N(C)CC(N)=O)CCOCC2)NC1=O [compound 37] | 5.3 nM
2 | CNCCOc1ccc(C[C@H](NC(=O)[C@H]2NC(=O)[C@H](CCCCNC(C)=O)NC(=O)[C@H](Cc3c[nH]c4c(C)cccc34)NC(=O)[C@H]([C@@H](C)O)NC(=O)[C@H](CC(N)=O)NC(=O)[C@@H](NC(C)=O)C(C)(C)SSC2(C)C)C(=O)N[C@@H](Cc2ccc3ccccc3c2)C(=O)NC2(C(=O)N[C@@H](CCCCNC(C)=O)C(=O)N[C@@H](CC(N)=O)C(=O)N[C@@H](Cc3cccnc3)C(=O)N(C)CC(N)=O)CCOCC2)cc1 [compound 47] | 3.9 nM
3 | CC(=O)NCCCC[C@@H]1NC(=O)[C@H](Cc2c[nH]c3c(C)cccc23)NC(=O)[C@H]([C@@H](C)O)NC(=O)[C@H](CC(N)=O)NC(=O)[C@@H](NC(=O)C(F)(F)F)C(C)(C)SSC(C)(C)[C@@H](C(=O)N[C@@H](Cc2ccc(OCCN)cc2)C(=O)N[C@@H](Cc2ccc3ccccc3c2)C(=O)NC2(C(=O)N[C@@H](CCCCNC(C)=O)C(=O)N[C@@H](CC(N)=O)C(=O)N[C@@H](Cc3cccnc3)C(=O)N(C)CC(N)=O)CCC(F)(F)CC2)NC1=O [compound 50] | 3.6 nM
4 | CC(=O)NCCCC[C@@H]1NC(=O)[C@H](Cc2c[nH]c3c(C)cccc23)NC(=O)[C@H]([C@@H](C)O)NC(=O)[C@H](CC(N)=O)NC(=O)[C@@H](NC(=O)C(F)(F)F)C(C)(C)SSC(C)(C)[C@@H](C(=O)N[C@@H](Cc2ccc(OCCN(C)C)cc2)C(=O)N[C@@H](Cc2ccc3ccccc3c2)C(=O)NC2(C(=O)N[C@@H](CCCCNC(C)=O)C(=O)N[C@@H](CC(N)=O)C(=O)N[C@@H](Cc3cccnc3)C(=O)N(C)CC(N)=O)CCOCC2)NC1=O [compound 53] | 3.9 nM
5 | CC(=O)NCCCC[C@@H]1NC(=O)[C@H](Cc2c[nH]c3c(C)cccc23)NC(=O)[C@H]([C@@H](C)O)NC(=O)[C@H](CC(N)=O)NC(=O)[C@@H](NC(=O)C(F)(F)F)C(C)(C)SSC(C)(C)[C@@H](C(=O)N[C@@H](Cc2ccc(OC(F)F)cc2)C(=O)N[C@@H](Cc2ccc3ccccc3c2)C(=O)NC2(C(=O)N[C@@H](CCCCNC(C)=O)C(=O)N[C@@H](CC(N)=O)C(=O)N[C@@H](Cc3cccnc3)C(=O)N(C)CC(N)=O)CCOCC2)NC1=O [compound 54] | 5.3 nM
6 | CC(=O)NCCCC[C@@H]1NC(=O)[C@H](Cc2c[nH]c3c(C)cccc23)NC(=O)[C@H]([C@@H](C)O)NC(=O)[C@H](CC(N)=O)NC(=O)[C@@H](NC(=O)C(F)(F)F)C(C)(C)SSC(C)(C)[C@@H](C(=O)N[C@@H](Cc2ccc(OCCN)cc2)C(=O)N[C@@H](Cc2ccc3ccccc3c2)C(=O)NC2(C(=O)N[C@@H](CCCCNC(C)=O)C(=O)N[C@@H](CC(N)=O)C(=O)N[C@@H](Cc3cccnc3)C(=O)N(C)CC(N)=O)CCN(C)CC2)NC1=O [compound 55] | 2.5 nM
7 | CC(=O)NCCCC[C@@H]1NC(=O)[C@H](Cc2c[nH]c3c(C)cccc23)NC(=O)[C@H]([C@@H](C)O)NC(=O)[C@H](CC(N)=O)NC(=O)[C@@H](NC(C)=O)C(C)(C)SSC(C)(C)[C@@H](C(=O)N[C@@H](Cc2ccc(OCCN)cc2)C(=O)N[C@@H](Cc2ccc3ccccc3c2)C(=O)NC2(C(=O)N[C@@H](CCCCN(C)C(C)=O)C(=O)N[C@@H](CC(N)=O)C(=O)N[C@@H](Cc3cccnc3)C(=O)N(C)CC(N)=O)CCOCC2)NC1=O [compound 59] | 4.7 nM
8 | CC(=O)NCCCC[C@H](NC(=O)C1(NC(=O)[C@H](Cc2ccc3ccccc3c2)NC(=O)[C@H](Cc2ccc(OCCN)cc2)NC(=O)[C@H]2NC(=O)[C@H](CCC(=O)N(C)C)NC(=O)[C@H](Cc3c[nH]c4c(C)cccc34)NC(=O)[C@H]([C@@H](C)O)NC(=O)[C@H](CC(N)=O)NC(=O)[C@@H](NC(=O)C(F)(F)F)C(C)(C)SSC2(C)C)CCOCC1)C(=O)N[C@@H](CC(N)=O)C(=O)N[C@@H](Cc1cccnc1)C(=O)N(C)CC(N)=O [compound 61] | 3.3 nM
9 | CC(=O)N(C)CCCC[C@@H]1NC(=O)[C@H](Cc2c[nH]c3c(C)cccc23)NC(=O)[C@H]([C@@H](C)O)NC(=O)[C@H](CC(=O)N(C)C)NC(=O)[C@@H](NC(=O)C(F)(F)F)C(C)(C)SSC(C)(C)[C@@H](C(=O)N[C@@H](Cc2ccc(OCCN(C)C)cc2)C(=O)N[C@@H](Cc2ccc3ccccc3c2)C(=O)NC2(C(=O)N[C@@H](CCCCN(C)C(C)=O)C(=O)N[C@@H](CC(N)=O)C(=O)N[C@@H](Cc3cccnc3)C(=O)N(C)CC(=O)N(C)C)CCOCC2)NC1=O [compound 66, CF3CO-Pen(3)-N(N(Me)2)-T-7MeW-K(NMeAc)-Pen(3)-AEF(N(Me)2)-2Nal-THP-K(NMeAc)-N-3Pya-Sar-CON(Me)2] | 2.8 nM
10 | CC(=O)N(C)CCCC[C@@H]1NC(=O)[C@H](Cc2c[nH]c3c(C)cccc23)NC(=O)[C@H]([C@@H](C)O)NC(=O)[C@H](CC(=O)N(C)C)NC(=O)[C@@H](NC(=O)C(F)(F)F)C(C)(C)SSC(C)(C)[C@@H](C(=O)N[C@@H](Cc2ccc(OCCN)cc2)C(=O)N[C@@H](Cc2ccc3ccccc3c2)C(=O)NC2(C(=O)N[C@@H](CCCCN(C)C(C)=O)C(=O)N[C@@H](CC(N)=O)C(=O)N[C@@H](Cc3cccnc3)C(=O)N(C)CC(=O)N(C)C)CCOCC2)NC1=O [compound 68, CF3CO-Pen(3)-N(N(Me)2)-T-7MeW-K(NMeAc)-Pen(3)-AEF-2Nal-THP-K(NMeAc)-N-3Pya-Sar-CON(Me)2] | 2.9 nM
11 | CC(=O)NCCCC[C@@H]1NC(=O)[C@H](Cc2c[nH]c3c(C)cccc23)NC(=O)[C@H]([C@@H](C)O)NC(=O)[C@H](CC(N)=O)NC(=O)[C@@H](NC(=O)C(F)(F)F)C(C)(C)SSC(C)(C)[C@@H](C(=O)N[C@@H](Cc2ccc(OCCN)cc2)C(=O)N[C@@H](Cc2ccc3ccccc3c2)C(=O)NC2(C(=O)N[C@@H](CCC(=O)N(C)C)C(=O)N[C@@H](CC(N)=O)C(=O)N[C@@H](Cc3cccnc3)C(=O)N(C)CC(N)=O)CCOCC2)NC1=O [compound 72] | 2.5 nM
12 | CC(=O)NCCCC[C@@H]1NC(=O)[C@H](Cc2c[nH]c3c(C)cccc23)NC(=O)[C@H]([C@@H](C)O)NC(=O)[C@H](CC(N)=O)NC(=O)[C@@H](NC(=O)C(F)(F)F)C(C)(C)SSC(C)(C)[C@@H](C(=O)N[C@@H](Cc2ccc(OCCN)cc2)C(=O)N[C@@H](Cc2ccc3ccccc3c2)C(=O)NC2(C(=O)N[C@@H](CCCCNC(C)=O)C(=O)N[C@@H](CC(N)=O)C(=O)N[C@@H](Cc3cccnc3)C(=O)N3CC(F)(F)C[C@H]3C(=O)N(C)C)CCOCC2)NC1=O [compound 73] | 1.9 nM
13 | CC(=O)NCCCC[C@@H]1NC(=O)[C@H](Cc2c[nH]c3c(C)cccc23)NC(=O)[C@H]([C@@H](C)O)NC(=O)[C@H](CC(N)=O)NC(=O)[C@@H](NC(=O)C(F)(F)F)C(C)(C)SSC(C)(C)[C@@H](C(=O)N[C@@H](Cc2ccc(OCCN)cc2)C(=O)N[C@@H](Cc2ccc3ccccc3c2)C(=O)NC2(C(=O)N[C@@H](CCCCNC(C)=O)C(=O)N[C@@H](CC(N)=O)C(=O)N[C@@H](Cc3cccnc3)C(=O)N(C)CC(=O)N(C)C)CCOCC2)NC1=O [compound 74] | 2.4 nM
